Assay results: patent US9133120B2

By UniProt entry, the sequences of proteins in these tests, tags left out.
UniProt P33535, whole entry, looked up: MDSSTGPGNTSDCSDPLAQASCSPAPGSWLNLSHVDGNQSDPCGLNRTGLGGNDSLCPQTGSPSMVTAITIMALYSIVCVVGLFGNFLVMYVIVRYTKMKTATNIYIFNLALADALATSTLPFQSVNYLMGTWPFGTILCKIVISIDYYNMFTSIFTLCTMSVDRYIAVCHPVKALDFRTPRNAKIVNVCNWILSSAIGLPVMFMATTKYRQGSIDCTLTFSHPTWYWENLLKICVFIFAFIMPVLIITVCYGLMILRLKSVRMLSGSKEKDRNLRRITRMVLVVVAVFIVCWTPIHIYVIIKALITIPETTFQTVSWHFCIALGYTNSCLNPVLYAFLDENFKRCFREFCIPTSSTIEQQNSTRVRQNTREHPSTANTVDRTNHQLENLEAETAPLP

Biological target: Wild-type mu-receptors (Rattus norvegicus, UniProt P33535)
Experiment: Suppression of FSK/IBMX-stimulated cAMP accumulation (cAMP ELISA) in transfected HEK-293 cells
Conditions: for cAMP (% baseline): 10 μM agonist, FSK/IBMX-stimulated; for suppression of FSK/IBMX-stimulated cAMP formation: pH 5.0 compared to pH 7.5

CN1CC[C@]23c4c5ccc(O)c4O[C@H]2[C@@H](O)C=C[C@H]3[C@H]1C5
cAMP (% baseline) (pH 5.0): 46 ± 11 % baseline
suppression of FSK/IBMX-stimulated cAMP formation: markedly stronger at pH 5.0 than at pH 7.5
cAMP (% baseline) (pH 6.5): 64 ± 13 % baseline
cAMP (% baseline) (pH 7.5): 80 ± 10 % baseline

C[C@@H](NC(=O)[C@@H](N)Cc1ccc(O)cc1)C(=O)NCC(=O)N(C)[C@@H](Cc1ccccc1)C(=O)NCCO
suppression of FSK/IBMX-stimulated cAMP formation: markedly stronger at pH 5.0 than at pH 7.5
